# Measured values taken from patent publication US11040036B2, “Pyruvate kinase activators for use in treating blood disorders” (Agios Pharmaceuticals, Inc., priority 2017, dated 2021).
# The chains behind the UniProt entries cited, without tags or fusion partners. Where a name states a change or a piece, a line headed by the entry shows the natural chain unless it says otherwise.
# UniProt P30613, whole entry: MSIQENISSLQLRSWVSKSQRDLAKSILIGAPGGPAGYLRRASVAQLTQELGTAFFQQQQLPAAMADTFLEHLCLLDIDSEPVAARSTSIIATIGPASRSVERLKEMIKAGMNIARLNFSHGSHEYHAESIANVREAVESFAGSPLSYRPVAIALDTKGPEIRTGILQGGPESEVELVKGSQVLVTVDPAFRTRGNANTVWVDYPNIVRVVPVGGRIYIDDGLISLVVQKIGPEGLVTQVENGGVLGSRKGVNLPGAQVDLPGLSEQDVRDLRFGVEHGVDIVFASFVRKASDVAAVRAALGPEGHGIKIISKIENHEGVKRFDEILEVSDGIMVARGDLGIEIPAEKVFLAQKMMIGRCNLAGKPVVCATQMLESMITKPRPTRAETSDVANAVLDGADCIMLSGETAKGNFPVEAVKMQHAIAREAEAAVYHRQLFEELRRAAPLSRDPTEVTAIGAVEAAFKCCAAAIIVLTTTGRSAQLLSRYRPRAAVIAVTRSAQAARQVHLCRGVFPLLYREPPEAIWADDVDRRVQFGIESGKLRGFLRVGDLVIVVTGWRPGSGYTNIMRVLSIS
# UniProt P30613, whole entry K410E: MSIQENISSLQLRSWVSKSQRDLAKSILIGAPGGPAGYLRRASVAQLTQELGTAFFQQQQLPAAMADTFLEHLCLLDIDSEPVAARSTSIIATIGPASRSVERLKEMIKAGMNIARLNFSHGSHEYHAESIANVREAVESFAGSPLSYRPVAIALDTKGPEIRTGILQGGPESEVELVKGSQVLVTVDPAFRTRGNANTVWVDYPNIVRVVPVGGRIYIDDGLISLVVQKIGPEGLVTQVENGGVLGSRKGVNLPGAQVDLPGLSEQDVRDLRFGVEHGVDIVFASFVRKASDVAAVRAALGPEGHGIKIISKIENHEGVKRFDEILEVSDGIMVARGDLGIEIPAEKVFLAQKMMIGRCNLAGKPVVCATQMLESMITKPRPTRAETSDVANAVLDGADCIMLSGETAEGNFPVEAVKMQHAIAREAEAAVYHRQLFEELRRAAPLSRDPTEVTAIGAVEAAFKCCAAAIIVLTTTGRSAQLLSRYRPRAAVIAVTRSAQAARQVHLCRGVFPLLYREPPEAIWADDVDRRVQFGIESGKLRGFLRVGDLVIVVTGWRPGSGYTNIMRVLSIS
# UniProt P30613, whole entry R510Q: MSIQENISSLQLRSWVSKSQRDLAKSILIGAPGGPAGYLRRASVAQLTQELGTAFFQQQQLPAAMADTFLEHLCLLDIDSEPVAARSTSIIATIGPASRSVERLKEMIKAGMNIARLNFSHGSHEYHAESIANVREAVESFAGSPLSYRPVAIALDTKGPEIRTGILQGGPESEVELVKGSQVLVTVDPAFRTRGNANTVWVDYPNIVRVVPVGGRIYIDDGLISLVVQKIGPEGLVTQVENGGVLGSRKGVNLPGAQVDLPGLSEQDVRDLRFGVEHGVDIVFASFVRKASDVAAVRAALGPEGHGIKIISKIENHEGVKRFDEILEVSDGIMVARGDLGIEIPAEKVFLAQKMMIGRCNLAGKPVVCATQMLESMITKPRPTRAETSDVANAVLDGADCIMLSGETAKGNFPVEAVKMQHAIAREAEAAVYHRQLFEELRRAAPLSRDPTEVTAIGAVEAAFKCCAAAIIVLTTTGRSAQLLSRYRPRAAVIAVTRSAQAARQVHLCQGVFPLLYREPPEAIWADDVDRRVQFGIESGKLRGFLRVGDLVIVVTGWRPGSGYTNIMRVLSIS
# Legend:
# [1] = target: PKR K410E (Homo sapiens, UniProt P30613, K410E); test: PKR mutant assay (AC50), PKR K410E; settings: read-out: PKR K410E AC50; PKR K410E mutant enzyme
# Protocol: (§1) Example 11. PKR Mutant Assay
# (§2) PKR or PKR mutant enzyme solution was diluted into a reaction mix, which contains 1× buffer (100 mM KCl, 50 mM Tris pH 7.5, 5 mM MgCl2) as well as PEP (cont depends on enzyme), 180 μM NADH, 0.5 units LDH, 1 mM DTT, 0.03% BSA; final assay concentrations after 1.11 fold dilution are indicated.
# (§3) 2 μL of test compound was added into wells first, and then 180 μL reaction mix was added.
# (§4) Reactions mixture with test compound was assembled except for ADP, and plates were stored for 60 minutes at room temperature.
# (§5) 20 uL ADP was added to start reaction at room temperature and reaction progress was measured as changes in absorbance at 340 nm wavelength at room temperature.
# (§6) Test Compound Preparation:
# (§7) Test compound stock was made at 100× concentration in 100% DMSO (10 mM)
# (§8) 1 to 3 dilutions were made for 11 points (i.e. 50 μl of first concentration added to 100 μl 100% DMSO to yield 3.33 mM, 50 μl of this added to 100 μl DMSO to yield 1.11 mM, and so forth) • 1 to 100 dilution into assay (2 μl in 200 μl) yielded starting concentration of 100 μM, decreasing 3 fold for 11 points.
# (§9) Assay Buffer: 100 mM KCl, 50 mM Tris 7.5, 5 mM MgCl2, 1 ruM DTT, 0.03% BSA
# (§10) Reaction Mixture: PKR mutant enzyme: 40-400 ng/well; ADP: 0.2-1.65 mM; PEP: 0.1-0.5 mM; NADH:180 μM; LDH: 0.5 units (Sigma #59023); DTT: 1 mM; BSA: 0.03%.
# [2] = target: T1, wild type PKR (Homo sapiens, UniProt P30613); test: PKR mutant assay (AC50), wild type PKR; settings: read-out: PKR WT AC50; wild type PKR enzyme
# Protocol: as §1, §2, §3, §4, §5, §6, §7, §8, §9, §10
# [3] = target: T1, wild type PKR; test: Cell based ATP assay in purified red blood cells; settings: read-out: Cell based ATP assay AC50; RBCs, overnight at 37° C., ATP levels by Cell-Titer-Glo
# Protocol: Example 16. Red Blood Cell (RBC) Purification
# Fresh blood drawn from healthy volunteers into K2EDTA tubes was collected. Whole blood was pelleted by spinning at 500 g for 10 minutes. Cut transfusion bag port off of Purecell leukocyte reduction neofilter (Fisher NCO267633) one (1) inch above filter. Attach a 10 ml syringe barrel to the remaining cut tubing attached to neofilter. The plasma layer was removed from the pellet of the whole blood and the pellet was resuspended in 2× volume of phosphate buffered saline (PBS). Transfer 9 ml re-suspended blood cell pellet to prepared 10 ml syringe that is attached to the neofilter. Allow whole blood to gravity flow through filter until all fluid runs through upper tubing into filter disc. Add plunger to the syringe, remove syringe from clamp and invert the filter, then plunge air through the syringe filter system. Using a new 5 ml syringe, remove filtered RBCs from the bag by the syringe port and transfer purified RBCs to a 5 ml snap cap tube that has been incubated on ice. Spin 5 ml snap cap tube at 500 g for 10 minutes at 15 C, aspirate supernatant and resuspend in AGAM (1×PBS, 1% glucose, 170 mg/L adenine, 5.25 g/L mannitol) at a density of 4×10^9 cells/mL.
# Example 17. Cell Based ATP Assay
# For cell based ATP assays, the compound as described herein was prepared in 100% DMSO as a 10 mM stock. […] ATP levels were read out using Cell-Titer-Glo (Promega).
# [4] = target: PKR R510Q (Homo sapiens, UniProt P30613, R510Q); test: PKR mutant assay (AC50), PKR R510Q; settings: read-out: PK R510Q AC50; PKR R510Q mutant enzyme
# Protocol: as §1, §2, §3, §4, §5, §6, §7, §8, §9, §10
compound,measurement,setting,value
CNc1nc(C(F)(F)c2cc[nH]n2)sc1-c1cnn(Cc2cc[nH]n2)c(=O)c1,AC50,[1],< 300 nM
same,AC50,[2],< 300 nM
same,AC50,[3],< 1000 nM
same,AC50,[4],< 300 nM
